Where “and” joins values, the source holds several entries; their conditions need not be identical. Equal entries are not always repeated.
Settings: individual subjects; single 0.6 mg colchicine, plasma; A Day 1, A + B Day 18

In the case of `COc1cc2c(c(OC)c1OC)-c1ccc(OC)c(=O)cc1[C@@H](NC(C)=O)CC2` [Treatment A, (−)-N-[(7S, 12aS)-1,2,3,10-tetramethoxy-9-oxo-5,6,7,9-tetrahydrobenzo[a]heptalen-7-yl]-acetamide], the Cmax is reported as 1.748 ng/mL and 1.968 ng/mL and 1.812 ng/mL and 2.994 ng/mL.
